Earlier results on 1 compound are cited in article PMC11623267, “Inhibitors of malaria parasite cyclic nucleotide phosphodiesterases block asexual blood-stage development and mosquito transmission” (Science Advances, 2024).

The test system of the data set is PDE11. The note with it: cited from earlier work.

As to `CN1CC(=O)N2[C@H](c3ccc4c(c3)OCO4)c3[nH]c4ccccc4c3C[C@@H]2C1=O` [tadalafil], the “Selectivity (PDE5 over PDE11)” value is listed as ~ 5 fold.
